For this assay, the species on record is Cavia porcellus. As to the kind of experiment: Inhibition of electrically evoked twitches in guinea pig ileum relative to morphine. In kind it is functional.

From ChEMBL document CHEMBL1122436, “Structure-activity studies of dermorphin. Synthesis and some pharmacological data of dermorphin and its 1-substituted analogues” (J Med Chem, 1983) come the findings set out here.

`CN1CC[C@]23c4c5ccc(O)c4O[C@H]2[C@@H](O)C=C[C@H]3[C@H]1C5` [MORPHINE]: the Relative potency was 1.
